Protein sequences, listed by entry. Tags and fused reporters are not part of them. Lines headed by an entry give the natural chain unless they say otherwise; changes in a name come on top.
UniProt O42275: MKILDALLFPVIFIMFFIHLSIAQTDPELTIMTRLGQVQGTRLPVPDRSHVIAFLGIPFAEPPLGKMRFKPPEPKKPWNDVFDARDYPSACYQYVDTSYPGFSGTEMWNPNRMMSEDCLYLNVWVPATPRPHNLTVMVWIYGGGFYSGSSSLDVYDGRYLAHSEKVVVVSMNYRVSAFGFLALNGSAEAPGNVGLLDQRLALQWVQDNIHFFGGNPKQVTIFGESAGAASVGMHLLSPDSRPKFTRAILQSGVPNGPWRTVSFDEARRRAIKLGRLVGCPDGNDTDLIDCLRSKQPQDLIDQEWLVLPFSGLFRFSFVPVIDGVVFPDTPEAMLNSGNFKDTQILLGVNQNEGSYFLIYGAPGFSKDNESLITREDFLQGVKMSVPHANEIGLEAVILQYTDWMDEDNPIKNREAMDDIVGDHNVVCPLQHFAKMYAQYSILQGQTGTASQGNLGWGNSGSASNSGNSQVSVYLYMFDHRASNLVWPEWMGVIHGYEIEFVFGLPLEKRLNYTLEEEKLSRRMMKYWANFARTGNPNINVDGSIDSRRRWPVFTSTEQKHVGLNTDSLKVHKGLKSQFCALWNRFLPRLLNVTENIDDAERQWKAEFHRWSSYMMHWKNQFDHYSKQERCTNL

According to ChEMBL document CHEMBL3826956, “Cholinesterase inhibitory activity of isoquinoline alkaloids from three Cryptocarya species (Lauraceae)” (Bioorg Med Chem, 2016):

Molecular target: Acetylcholinesterase (Electrophorus electricus, UniProt O42275)
Assay: Inhibition of electric eel AChE preincubated for 15 mins followed by addition of acetylthiocholine iodide as substrate measured after 30 mins by Ellman's microplate assay

CNC(=O)Oc1ccc2c(c1)[C@]1(C)CCN(C)[C@@H]1N2C [PHYSOSTIGMINE] gave an IC50 of 160 nM.
